{"sequences": {"note": "By UniProt entry, the sequences of proteins in these tests, tags left out.", "UniProt P00519, whole entry": "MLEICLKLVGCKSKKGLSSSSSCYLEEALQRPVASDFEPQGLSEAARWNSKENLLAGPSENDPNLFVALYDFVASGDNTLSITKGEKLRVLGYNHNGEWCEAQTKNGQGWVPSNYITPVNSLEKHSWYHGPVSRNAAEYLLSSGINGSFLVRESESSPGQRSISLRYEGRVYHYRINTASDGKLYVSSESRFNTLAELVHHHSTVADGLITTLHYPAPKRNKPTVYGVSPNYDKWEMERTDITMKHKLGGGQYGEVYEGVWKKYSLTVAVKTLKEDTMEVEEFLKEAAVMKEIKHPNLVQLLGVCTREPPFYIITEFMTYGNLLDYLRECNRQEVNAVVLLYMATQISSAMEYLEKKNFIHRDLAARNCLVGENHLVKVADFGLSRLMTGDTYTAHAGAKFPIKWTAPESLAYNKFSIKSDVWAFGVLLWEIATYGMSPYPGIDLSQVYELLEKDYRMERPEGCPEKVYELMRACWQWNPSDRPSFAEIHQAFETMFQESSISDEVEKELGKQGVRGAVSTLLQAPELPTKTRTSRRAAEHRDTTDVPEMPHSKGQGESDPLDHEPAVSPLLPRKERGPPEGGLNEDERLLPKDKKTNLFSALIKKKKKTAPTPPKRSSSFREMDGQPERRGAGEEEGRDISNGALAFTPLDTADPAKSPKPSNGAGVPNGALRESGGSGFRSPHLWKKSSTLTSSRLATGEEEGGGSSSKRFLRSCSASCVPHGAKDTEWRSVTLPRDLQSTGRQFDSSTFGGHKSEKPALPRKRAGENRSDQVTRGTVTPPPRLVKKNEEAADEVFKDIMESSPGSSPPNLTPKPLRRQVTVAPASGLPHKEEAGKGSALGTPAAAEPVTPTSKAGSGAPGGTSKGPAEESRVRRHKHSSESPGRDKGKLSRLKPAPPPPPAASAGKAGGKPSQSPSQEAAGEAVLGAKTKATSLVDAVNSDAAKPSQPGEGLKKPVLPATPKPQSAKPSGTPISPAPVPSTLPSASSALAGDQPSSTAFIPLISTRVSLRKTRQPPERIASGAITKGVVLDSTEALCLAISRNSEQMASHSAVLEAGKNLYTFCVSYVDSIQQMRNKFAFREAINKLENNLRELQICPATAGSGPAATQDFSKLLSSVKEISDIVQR"}, "source": "patent US7279576B2", "about": "(Deciphera Pharmaceuticals, LLC, priority 2002, dated 2007)", "target": "nonphosphorylated Abl kinase (Homo sapiens, UniProt P00519)", "assay": "Abl kinase assay (continuous spectrophotometric, pyruvate kinase/lactate dehydrogenase coupled)", "settings": "reference inhibitors, ATP 0.5 mM, 30° C."}
{"smiles": "Cc1cc(Nc2ncc3cc(-c4c(Cl)cccc4Cl)c(=O)n(C)c3n2)ccc1F", "values": [{"measurement": "IC50", "value": 0.024, "unit": "µM"}]}
